{"sequences": {"note": "Chains of the proteins cited; added tags and fusions are not shown. Residues count along the entry.", "UniProt P37231, 232-505 limits assumed": "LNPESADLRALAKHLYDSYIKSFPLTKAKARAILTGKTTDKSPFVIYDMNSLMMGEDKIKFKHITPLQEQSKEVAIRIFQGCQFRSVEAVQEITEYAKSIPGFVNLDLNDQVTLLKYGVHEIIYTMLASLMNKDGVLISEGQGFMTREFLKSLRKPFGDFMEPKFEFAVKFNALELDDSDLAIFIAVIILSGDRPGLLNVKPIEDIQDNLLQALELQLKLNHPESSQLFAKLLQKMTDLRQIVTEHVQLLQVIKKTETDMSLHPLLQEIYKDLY", "UniProt Q15788, whole entry partner": "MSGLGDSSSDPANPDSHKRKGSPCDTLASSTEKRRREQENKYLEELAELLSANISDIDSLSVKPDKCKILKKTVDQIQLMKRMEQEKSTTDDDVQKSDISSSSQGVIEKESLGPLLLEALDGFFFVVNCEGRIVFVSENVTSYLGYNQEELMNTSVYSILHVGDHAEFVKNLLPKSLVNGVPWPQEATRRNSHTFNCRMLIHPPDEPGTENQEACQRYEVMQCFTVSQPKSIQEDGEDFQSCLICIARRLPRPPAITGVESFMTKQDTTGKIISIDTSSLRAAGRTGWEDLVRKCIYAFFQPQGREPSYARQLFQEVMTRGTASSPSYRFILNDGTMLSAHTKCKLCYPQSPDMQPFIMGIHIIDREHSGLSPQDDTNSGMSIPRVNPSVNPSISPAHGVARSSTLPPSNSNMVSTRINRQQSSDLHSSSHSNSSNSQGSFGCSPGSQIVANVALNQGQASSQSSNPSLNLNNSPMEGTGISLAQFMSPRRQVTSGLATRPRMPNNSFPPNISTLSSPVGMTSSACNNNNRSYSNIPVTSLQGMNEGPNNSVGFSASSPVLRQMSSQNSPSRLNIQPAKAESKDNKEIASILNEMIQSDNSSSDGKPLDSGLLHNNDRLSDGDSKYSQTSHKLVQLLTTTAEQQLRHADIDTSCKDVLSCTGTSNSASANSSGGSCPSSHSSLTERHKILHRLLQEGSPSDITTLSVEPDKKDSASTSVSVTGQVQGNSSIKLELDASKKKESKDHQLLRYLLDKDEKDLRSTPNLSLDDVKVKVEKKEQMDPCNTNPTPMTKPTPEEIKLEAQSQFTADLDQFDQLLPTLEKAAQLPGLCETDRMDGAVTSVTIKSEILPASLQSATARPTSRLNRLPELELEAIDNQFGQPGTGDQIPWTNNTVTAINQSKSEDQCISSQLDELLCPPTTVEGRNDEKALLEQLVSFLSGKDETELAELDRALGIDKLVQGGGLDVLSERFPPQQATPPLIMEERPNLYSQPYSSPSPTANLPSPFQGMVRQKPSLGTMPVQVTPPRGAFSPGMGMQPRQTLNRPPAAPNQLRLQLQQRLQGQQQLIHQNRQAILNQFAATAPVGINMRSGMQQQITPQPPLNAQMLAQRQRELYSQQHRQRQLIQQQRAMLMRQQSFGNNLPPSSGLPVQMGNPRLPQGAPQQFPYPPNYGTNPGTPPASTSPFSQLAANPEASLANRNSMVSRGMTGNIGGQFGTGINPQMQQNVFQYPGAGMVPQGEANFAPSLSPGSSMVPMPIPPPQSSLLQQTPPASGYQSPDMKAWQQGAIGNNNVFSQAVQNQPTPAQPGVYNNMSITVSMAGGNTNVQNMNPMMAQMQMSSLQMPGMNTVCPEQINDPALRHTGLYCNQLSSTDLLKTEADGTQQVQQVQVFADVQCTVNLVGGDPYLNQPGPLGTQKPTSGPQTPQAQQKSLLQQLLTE"}, "source": "PubChem BioAssay AID631", "about": "(The Scripps Research Institute Molecular Screening Center, 2007)", "note": "The list shows a part of the results, in another mix than the full data. Calls of active or inactive are those of the source. Rule as the data show it: active = activation above about 19%; inactive = the rest.", "data": [{"biological_target": "Peroxisome proliferator-activated receptor gamma (Homo sapiens) (UniProt P37231)", "assay": "PPARgamma agonists recruiting SRC-1 coactivator, primary screen, biochemical (AID 631);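 also: 0% = DMSO and 100% = reference agonist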", "details": "PPARgamma-SRC-1 coactivator recruitment biochemical assay; at 8 µM; stronger effect = higher value", "values": [{"compound": "Cc1cccc(C)c1OP(C)(N)=O", "note": "(stereo not given)", "activation": "inactive: -3%"}, {"compound": "CC(C)(C)c1ccc(OP(C)(=O)Nc2ccc(SC(F)(F)F)cc2)cc1", "note": "(stereo not given)", "activation": "inactive: 1.1%"}, {"compound": "O=[N+]([O-])c1ccc2c(c1)C=Nc1ccccc1O2", "activation": "inactive: -2.7%"}, {"compound": "CCOC(=O)c1ccc(NP(C)(=O)Oc2ccccc2)cc1", "note": "(stereo not given)", "activation": "inactive: -3%"}, {"compound": "Cc1ccc(NP(C)(=O)Oc2ccccc2)c(C)c1", "note": "(stereo not given)", "activation": "inactive: -2.5%"}, {"compound": "COc1ccccc1OP(C)(=O)Nc1ccc(C)cc1", "note": "(stereo not given)", "activation": "inactive: 3.2%"}, {"compound": "COc1ccc(OP(C)(=O)Nc2cccc(F)c2)cc1", "note": "(stereo not given)", "activation": "inactive: 2.4%"}, {"compound": "COc1ccccc1OP(C)(=O)Nc1cc(Cl)ccc1C", "note": "(stereo not given)", "activation": "inactive: 3.7%"}, {"compound": "Cc1cc(C)cc(OP(C)(N)=O)c1", "note": "(stereo not given)", "activation": "inactive: 6.4%"}, {"compound": "CCN(CC)CCCOC(=O)C(O)(c1ccccc1)c1ccccc1", "activation": "inactive: 0.2%"}, {"compound": "CP(=O)(Oc1ccccc1)OC(c1ccccc1)C(F)(F)F", "note": "(stereo not given)", "activation": "inactive: 8.9%"}, {"compound": "Cc1cccc(C)c1OP(C)(=O)Nc1ccc(SC(F)(F)F)cc1", "note": "(stereo not given)", "activation": "inactive: 2.3%"}, {"compound": "Cc1cc(C)cc(OP(C)(=O)Nc2ccc(SC(F)(F)F)cc2)c1", "note": "(stereo not given)", "activation": "inactive: 4.5%"}, {"compound": "CP(=O)(NC(=O)Nc1ccccc1)Oc1ccccc1", "note": "(stereo not given)", "activation": "inactive: 0.3%"}, {"compound": "CCOP(C)(=S)SCC(=O)NC(C)C(=O)O", "note": "(stereo not given)", "activation": "inactive: 9%"}, {"compound": "CCOC(=O)c1ccc(NP(C)(=O)Oc2ccc(OC)cc2)cc1", "note": "(stereo not given)", "activation": "inactive: 2.2%"}, {"compound": "CP(=O)(Nc1ccccn1)Oc1ccc(Cl)cc1", "note": "(stereo not given)", "activation": "inactive: 3.9%"}, {"compound": "CP(=S)(Nn1cnnc1)Oc1ccccc1", "note": "(stereo not given)", "activation": "inactive: 5.4%"}, {"compound": "COc1ccccc1OP(C)(=O)Nc1ccccc1", "note": "(stereo not given)", "activation": "inactive: -4.9%"}, {"compound": "CP(=O)(Nc1ccccc1Br)Oc1ccccc1", "note": "(stereo not given)", "activation": "inactive: 11.7%"}, {"compound": "CN1CCCCC1COC(=O)C1(O)c2ccccc2CCc2ccccc21", "note": "(stereo not given)", "activation": "inactive: 3.1%"}, {"compound": "COc1ccccc1OP(C)(=O)Nc1c(C)cccc1C", "note": "(stereo not given)", "activation": "inactive: 5.8%"}, {"compound": "CCCOc1ccc(NP(C)(=O)Oc2ccc(Cl)cc2)cc1", "note": "(stereo not given)", "activation": "inactive: -6.5%"}, {"compound": "CP(=O)(Nc1ccc(SC(F)(F)F)cc1)Oc1ccccc1", "note": "(stereo not given)", "activation": "inactive: -1%"}, {"compound": "O=[N+]([O-])c1cc([N+](=O)[O-])c(-n2nnc3ccccc32)c([N+](=O)[O-])c1", "activation": "inactive: -1.3%"}, {"compound": "Cc1nc2ccc3ccccc3c2s1.O=[N+]([O-])c1cc([N+](=O)[O-])c(O)c([N+](=O)[O-])c1", "activation": "inactive: 6.6%"}, {"compound": "Cc1cc(C)cc(OP(C)(=O)Nc2ccc(C)cc2C)c1", "note": "(stereo not given)", "activation": "inactive: 0.9%"}, {"compound": "CCOC(=O)c1ccc(NP(C)(=O)Oc2cc(C)cc(C)c2)cc1", "note": "(stereo not given)", "activation": "inactive: -5.7%"}, {"compound": "Cc1cc(C)cc(OP(C)(=O)Nc2ccccn2)c1", "note": "(stereo not given)", "activation": "inactive: 3%"}, {"compound": "CP(=O)(Nc1cccc(Br)c1)Oc1ccccc1", "note": "(stereo not given)", "activation": "inactive: -2.5%"}, {"compound": "Cc1ccc(C)c(NP(C)(=O)Oc2ccccc2)c1", "note": "(stereo not given)", "activation": "inactive: 2%"}, {"compound": "CC1=NCCc2c1[nH]c1ccccc21.O=[N+]([O-])c1cc([N+](=O)[O-])c(O)c([N+](=O)[O-])c1", "activation": "inactive: 7.6%"}, {"compound": "COc1ccc(OP(C)(=O)Nc2ccc(SC(F)(F)F)cc2)cc1", "note": "(stereo not given)", "activation": "inactive: -3.9%"}, {"compound": "CCOC(=O)c1ccc(NP(C)(=O)Oc2ccc(F)cc2)cc1", "note": "(stereo not given)", "activation": "inactive: 2%"}, {"compound": "CCN(CC)CCCOC(=O)C(O)(c1ccccc1)C1CCCCC1", "note": "(stereo not given)", "activation": "inactive: -5.7%"}, {"compound": "CP(=O)(Nc1ccccc1)Oc1ccc(F)cc1", "note": "(stereo not given)", "activation": "inactive: 1.7%"}, {"compound": "CC(C)c1ccc(OP(C)(=O)Nc2ccc(SC(F)(F)F)cc2)cc1", "note": "(stereo not given)", "activation": "inactive: 0.5%"}, {"compound": "CP(=O)(Nc1ccccc1F)Oc1ccccc1", "note": "(stereo not given)", "activation": "inactive: 9.5%"}, {"compound": "O=C(OCCN1CCN(CCOCc2ccccc2)CC1)C(O)(c1ccccc1)c1ccccc1", "activation": "inactive: -10.9%"}, {"compound": "CCOP(C)(=S)SCC(=O)NC(C)(CC)C(=O)O", "note": "(stereo not given)", "activation": "inactive: 2.4%"}, {"compound": "CP(=O)(Nc1ccc2c(c1)OCCO2)Oc1ccccc1", "note": "(stereo not given)", "activation": "inactive: -4.1%"}, {"compound": "Cc1ccccc1NP(C)(=O)Nc1ccccc1C", "activation": "inactive: 3.3%"}, {"compound": "COc1ccc(OP(C)(=O)Nc2cccc(Br)c2)cc1", "note": "(stereo not given)", "activation": "inactive: 2.9%"}, {"compound": "COc1ccc(NP(C)(=O)Oc2ccccc2OC)cc1", "note": "(stereo not given)", "activation": "inactive: 8.1%"}, {"compound": "CN(C)CCOC(=O)C(O)(c1ccccc1)C1CCCCC1", "note": "(stereo not given)", "activation": "inactive: -0.4%"}, {"compound": "O=[N+]([O-])c1cc([N+](=O)[O-])c(NCC2CCS(=O)(=O)C2)c([N+](=O)[O-])c1", "note": "(stereo not given)", "activation": "inactive: 2.5%"}, {"compound": "CP(=O)(OC12CC3CC(CC(C3)C1)C2)OC12CC3CC(CC(C3)C1)C2", "activation": "inactive: -0.8%"}, {"compound": "CCOC(=O)c1ccc(NP(C)(=O)Oc2ccc(Cl)cc2)cc1", "note": "(stereo not given)", "activation": "inactive: 0.2%"}, {"compound": "COc1ccc(OP(C)(=O)Nc2ccc(Br)cc2)cc1", "note": "(stereo not given)", "activation": "inactive: -2.6%"}, {"compound": "CCN(CC)CC(O)COC(=O)C(O)(c1ccccc1)C1CCCCC1", "note": "(stereo not given)", "activation": "inactive: 2.9%"}, {"compound": "CCc1ccc(OP(C)(=O)Nc2cccnc2)cc1", "note": "(stereo not given)", "activation": "inactive: -5.3%"}, {"compound": "CP(=O)(Oc1ccccc1)N1CCOC1=O", "note": "(stereo not given)", "activation": "inactive: -7%"}, {"compound": "COc1ccccc1OP(C)(=O)Nc1c(C)n(C)n(-c2ccccc2)c1=O", "note": "(stereo not given)", "activation": "inactive: 4.7%"}, {"compound": "CP(=O)(Nc1ccc(Cl)cc1)Oc1ccc(F)cc1", "note": "(stereo not given)", "activation": "inactive: 5.3%"}, {"compound": "COc1ccccc1OP(C)(=O)Nc1ccccc1Br", "note": "(stereo not given)", "activation": "inactive: 0.3%"}, {"compound": "CC(C)(C)c1ccc(OP(C)(=O)O)cc1", "activation": "inactive: 3.9%"}, {"compound": "CN(C)C(=O)c1c([N+](=O)[O-])cc([N+](=O)[O-])cc1[N+](=O)[O-]", "activation": "inactive: 6%"}, {"compound": "CN(C)CCOC(=O)C(O)(c1ccccc1)C1CCCC1", "note": "(stereo not given)", "activation": "inactive: 3.9%"}, {"compound": "COc1ccc(OP(C)(=O)Nc2ccccn2)cc1", "note": "(stereo not given)", "activation": "inactive: 4.9%"}, {"compound": "Cc1c(NP(C)(=O)Oc2ccc(C(C)C)cc2)c(=O)n(-c2ccccc2)n1C", "note": "(stereo not given)", "activation": "inactive: -0.9%"}, {"compound": "O=[N+]([O-])c1cc([N+](=O)[O-])c(Nc2ccccn2)c([N+](=O)[O-])c1", "activation": "inactive: 8%"}, {"compound": "CCc1ccc(OP(C)(=O)O)cc1", "activation": "inactive: -4.5%"}, {"compound": "COc1ccccc1OP(C)(=O)Nc1ccc(C)cc1C", "note": "(stereo not given)", "activation": "inactive: 1.4%"}, {"compound": "CP(=O)(Nc1ccccn1)Oc1ccccc1", "note": "(stereo not given)", "activation": "inactive: 2.1%"}, {"compound": "Cc1cc(C)cc(OP(C)(=O)Nc2cccc(C(F)(F)F)c2)c1", "note": "(stereo not given)", "activation": "inactive: 12.2%"}, {"compound": "COc1ccc(OP(C)(=O)Nc2ccccc2Br)cc1", "note": "(stereo not given)", "activation": "inactive: 4.4%"}, {"compound": "COc1ccccc1OP(C)(=O)Nc1ccc(C)c(C)c1", "note": "(stereo not given)", "activation": "inactive: 5.4%"}, {"compound": "Cc1nc2ccc3ccccc3c2o1.O=[N+]([O-])c1cc([N+](=O)[O-])c(O)c([N+](=O)[O-])c1", "activation": "inactive: -5%"}, {"compound": "CP(=O)(Nc1ccc(Cl)cc1Cl)Oc1ccccc1", "note": "(stereo not given)", "activation": "inactive: 3.7%"}, {"compound": "CP(=O)(OCCOc1ccccc1)OCCOc1ccccc1", "activation": "inactive: -4.5%"}]}]}
